From patent publication US20260174739A1 (priority 2022, published 2026)

Chains of the proteins cited; added tags and fusions are not shown.
UniProt Q01959, whole entry: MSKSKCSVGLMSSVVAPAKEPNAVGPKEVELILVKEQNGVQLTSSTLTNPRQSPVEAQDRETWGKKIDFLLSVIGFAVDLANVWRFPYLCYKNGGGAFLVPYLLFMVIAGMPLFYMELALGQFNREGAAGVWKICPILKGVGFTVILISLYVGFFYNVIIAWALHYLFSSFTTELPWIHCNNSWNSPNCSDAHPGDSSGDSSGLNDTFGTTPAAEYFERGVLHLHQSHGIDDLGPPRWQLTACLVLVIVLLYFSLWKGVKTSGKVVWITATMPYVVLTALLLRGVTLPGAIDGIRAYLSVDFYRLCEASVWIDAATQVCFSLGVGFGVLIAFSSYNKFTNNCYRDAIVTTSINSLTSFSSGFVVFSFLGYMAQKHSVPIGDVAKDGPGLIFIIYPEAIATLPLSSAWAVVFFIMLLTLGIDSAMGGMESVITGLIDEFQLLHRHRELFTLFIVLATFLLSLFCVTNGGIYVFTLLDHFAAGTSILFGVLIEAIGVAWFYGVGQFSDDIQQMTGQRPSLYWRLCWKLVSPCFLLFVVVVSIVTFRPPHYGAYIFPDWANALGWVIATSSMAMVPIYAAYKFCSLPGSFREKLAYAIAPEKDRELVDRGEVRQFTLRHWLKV
UniProt P31645, whole entry: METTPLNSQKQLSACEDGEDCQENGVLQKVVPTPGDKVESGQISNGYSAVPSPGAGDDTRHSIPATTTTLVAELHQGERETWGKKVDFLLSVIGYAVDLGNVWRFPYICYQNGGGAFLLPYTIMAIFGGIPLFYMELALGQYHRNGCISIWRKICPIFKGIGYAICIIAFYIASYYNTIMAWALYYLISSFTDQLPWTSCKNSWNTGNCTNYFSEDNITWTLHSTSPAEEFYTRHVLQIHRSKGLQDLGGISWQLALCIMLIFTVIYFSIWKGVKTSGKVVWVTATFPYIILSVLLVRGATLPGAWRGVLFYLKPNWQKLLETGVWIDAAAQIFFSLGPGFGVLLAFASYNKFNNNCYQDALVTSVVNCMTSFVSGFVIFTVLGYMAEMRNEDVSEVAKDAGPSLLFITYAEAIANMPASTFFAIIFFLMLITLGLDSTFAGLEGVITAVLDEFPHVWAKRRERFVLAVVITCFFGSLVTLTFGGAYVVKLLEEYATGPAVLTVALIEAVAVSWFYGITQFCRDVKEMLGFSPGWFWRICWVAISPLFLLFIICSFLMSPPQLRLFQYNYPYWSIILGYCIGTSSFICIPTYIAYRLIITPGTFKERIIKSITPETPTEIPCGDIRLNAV

What follows are compounds tested against human DAT (Homo sapiens, UniProt Q01959) (assay: DAT transporter inhibitory activity test (neurotransmitter transporter uptake assay kit)). Details: read-out: DAT (IC50); DAT stably transfected HEK cells.
Type: cell-based

| Structure (SMILES) | IC50 |
| --- | --- |
| CN[C@@]1(c2ccccc2)CCc2ccsc2C1 | 250 nM |
| N[C@@]1(c2ccccc2)CCc2sccc2C1 | 2200 nM |
| CN[C@@]1(c2ccccc2)CCc2sccc2C1 | 810 nM |

These compounds were tested against human SERT (Homo sapiens, UniProt P31645) (assay: Inhibitory activity assay against 5-HT transporter (neurotransmitter transporter uptake assay kit)). Details: read-out: 5-HTT (IC50); HEK-293 cells overexpressing human SERT.
Type: cell-based

| Structure (SMILES) | IC50 |
| --- | --- |
| N[C@]1(c2ccccc2)CCc2sccc2C1 | 710 nM |
| CN[C@]1(c2ccccc2)CCc2sccc2C1 | 900 nM |
| CN[C@]1(c2ccccc2)CCc2ccsc2C1 | 910 nM |
